Consider one molecule from patent US12590091B2, “1H-pyrrolo[3,2-C]pyridine and 1H-pyrrolo[2,3-C]pyridine derivatives as TLR9 inhibitors for the treatment of fibrosis” (BRISTOL-MYERS SQUIBB COMPANY, priority 2020, dated 2026).

The chains behind the UniProt entries cited, without tags or fusion partners. Residues count along the entry.
UniProt Q9NR96, 26-1032 limits assumed: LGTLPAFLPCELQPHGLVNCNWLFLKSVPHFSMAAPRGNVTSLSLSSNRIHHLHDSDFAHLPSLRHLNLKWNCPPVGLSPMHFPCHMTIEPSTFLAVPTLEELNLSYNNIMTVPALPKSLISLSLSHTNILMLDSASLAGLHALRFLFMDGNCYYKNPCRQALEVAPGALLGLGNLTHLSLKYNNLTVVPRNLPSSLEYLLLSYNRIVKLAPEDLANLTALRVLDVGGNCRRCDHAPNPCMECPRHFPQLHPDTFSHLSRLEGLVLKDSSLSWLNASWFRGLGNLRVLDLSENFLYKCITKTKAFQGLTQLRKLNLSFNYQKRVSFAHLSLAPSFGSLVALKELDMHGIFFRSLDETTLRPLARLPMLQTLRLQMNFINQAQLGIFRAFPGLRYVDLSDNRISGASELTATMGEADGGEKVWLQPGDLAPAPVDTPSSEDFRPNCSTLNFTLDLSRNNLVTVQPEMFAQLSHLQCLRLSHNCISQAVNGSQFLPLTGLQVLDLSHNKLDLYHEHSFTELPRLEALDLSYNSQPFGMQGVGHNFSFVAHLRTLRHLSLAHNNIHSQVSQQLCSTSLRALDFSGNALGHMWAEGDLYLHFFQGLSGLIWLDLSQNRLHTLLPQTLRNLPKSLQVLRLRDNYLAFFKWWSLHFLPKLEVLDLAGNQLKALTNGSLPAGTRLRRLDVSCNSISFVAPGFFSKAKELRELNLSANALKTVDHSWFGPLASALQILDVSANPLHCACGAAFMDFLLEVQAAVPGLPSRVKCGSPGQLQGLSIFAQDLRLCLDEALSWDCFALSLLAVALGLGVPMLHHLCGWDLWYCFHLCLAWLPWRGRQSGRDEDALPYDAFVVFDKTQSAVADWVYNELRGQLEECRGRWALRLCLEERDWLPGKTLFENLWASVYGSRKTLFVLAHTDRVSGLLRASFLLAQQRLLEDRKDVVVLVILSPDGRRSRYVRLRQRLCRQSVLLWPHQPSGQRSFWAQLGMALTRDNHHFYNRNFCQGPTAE

In the assay the target is human TLR9 (Homo sapiens, UniProt Q9NR96). Description: TLR9 inhibition reporter assay (HEK-Blue cells, SEAP reporter). Type of assay: cell-based. The following applies: read-out: TLR9 IC50, HEK-Blue cells overexpressing human TLR9, stimulated with ODN2006 5 nM, 22 hour incubation. (Reporter assays use an easily measured gene product as a stand-in for the process of interest.)

SMILES strings stand for the structures.

By IC50 is commonly meant the concentration at which inhibition is half-maximal. Turning to `Cc1nc(-c2cc(F)c(N3CCN(CC(C)C)CC3)cc2F)cc2c1cc(-c1ccc(S(C)(=O)=O)cc1)n2C`, the IC50 was determined as 7.28 µM.
